Patent US20150018566A1, “TUBULIN BINDING AGENTS” (priority 2011, published 2015)

By UniProt entry, the sequences of proteins in these tests, tags left out. Where a name states a change or a piece, a line headed by the entry shows the natural chain unless it says otherwise.
UniProt P15144: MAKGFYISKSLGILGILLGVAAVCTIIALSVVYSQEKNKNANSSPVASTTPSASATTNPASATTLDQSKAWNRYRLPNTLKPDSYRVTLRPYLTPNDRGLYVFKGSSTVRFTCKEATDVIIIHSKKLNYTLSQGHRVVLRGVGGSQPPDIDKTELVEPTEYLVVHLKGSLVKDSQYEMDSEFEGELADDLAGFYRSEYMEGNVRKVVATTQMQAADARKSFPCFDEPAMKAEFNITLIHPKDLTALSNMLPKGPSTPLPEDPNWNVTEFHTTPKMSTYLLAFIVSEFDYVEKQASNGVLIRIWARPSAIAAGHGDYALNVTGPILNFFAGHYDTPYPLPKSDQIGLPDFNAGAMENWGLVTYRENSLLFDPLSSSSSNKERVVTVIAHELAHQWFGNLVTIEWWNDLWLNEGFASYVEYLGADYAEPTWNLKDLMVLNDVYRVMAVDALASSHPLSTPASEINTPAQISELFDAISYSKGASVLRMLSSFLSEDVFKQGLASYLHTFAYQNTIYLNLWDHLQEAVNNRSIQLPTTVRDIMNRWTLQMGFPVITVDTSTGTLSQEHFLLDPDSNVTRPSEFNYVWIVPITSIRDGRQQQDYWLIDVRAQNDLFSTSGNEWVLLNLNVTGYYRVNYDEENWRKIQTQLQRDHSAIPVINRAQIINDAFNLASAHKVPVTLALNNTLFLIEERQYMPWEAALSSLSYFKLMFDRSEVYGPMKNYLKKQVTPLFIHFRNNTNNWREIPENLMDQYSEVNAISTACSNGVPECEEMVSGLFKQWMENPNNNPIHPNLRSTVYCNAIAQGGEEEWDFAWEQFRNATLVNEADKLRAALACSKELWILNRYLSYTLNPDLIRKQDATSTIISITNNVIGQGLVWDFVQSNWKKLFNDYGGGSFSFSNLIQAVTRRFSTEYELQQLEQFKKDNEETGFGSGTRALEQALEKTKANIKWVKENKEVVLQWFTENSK

Key:
[1] = molecular target: T1, APN enzyme present on PC-3 cells (Homo sapiens, UniProt P15144); assay: APN cell-based assay, PC-3 cells; details: 2 h incubation
T1 construct: PC-3 cell line was selected due to its high expression of APN; host or cells: PC-3
Method: (§1) To further investigate the APN inhibitory effect of the hybrids the APN cell-based assay was carried out as previously described using both HUVECs and PC-3 cells. In order to exclude any possible cytotoxic effects of the tubulin component of the hybrids that could interfere with the outcome of the results, it was necessary to perform cytotoxicity assays. For this purpose, the MTT assay was used as previously described; however the duration of compounds' incubation was modified to 2 h in order to correlate with the incubation period of APN cell-based assay. The presence of APN-expres sing cells replaced the step of the addition of the actual APN enzyme and the rest of the protocol remained the same. The release of the resulting product p-nitroaniline was measured spectrophotometrically at 405 nm and the level of APN present […] the cells was directly related to the intensity of the colour absorbance.
HUVECs/PC-3 cells' surface APN activity was estimated spectrophotometrically using L-leucine-p-nitroanilide as an APN substrate. 1×10^6 cells/ml ([…]) were seeded in 96-well plate and incubated overnight at 37° C. The following day cell medium was replaced by various concentrations of compounds diluted in HEPES buffer (100 μl). […] L-leucine-p-nitroanilide (50 μl) was added to each well to give a final concentration of 2 mM. Following 2 h incubation at 37° C., absorbance was measured at 405 nm using a FLUOstar OPTIMA microplate reader (BMG labtech). Each compound concentration was tested in quadruplicate and each experiment was performed at three independent times. The percentage APN inhibition was determined using the formula below and where appropriate, IC50 values were obtained.
% APN inhibition=100−[(mean Abs of test compound)/(mean Abs of control)]*100

[2] = molecular target: T2, APN enzyme present on HUVECs (Homo sapiens, UniProt P15144); assay: APN cell-based assay, HUVECs; details: 2 h incubation
T2 construct: The presence of APN-expres sing cells replaced the step of the addition of the actual APN enzyme; host or cells: HUVECs
Method: as §1
HUVECs/PC-3 cells' surface APN activity was estimated spectrophotometrically using L-leucine-p-nitroanilide as an APN substrate. 1×10^6 cells/ml ([…]) were seeded in 96-well plate and incubated overnight at 37° C. […] Following 2 h incubation at 37° C., absorbance was measured at 405 nm using a FLUOstar OPTIMA microplate reader (BMG labtech). […] The percentage APN inhibition was determined using the formula below and where appropriate, IC50 values were obtained. […]

## CC(C)C[C@H](NC(=O)[C@@H](O)[C@H](N)Cc1ccccc1)C(=O)O.Cl [Bestatin, bestatin hydrochloride, reference compound]
[1]; 1 μM
  percentage APN inhibition: 10.84±3.24%
[1]; 5 μM
  percentage APN inhibition: 15.1±0.97%
[1]; 10 μM
  percentage APN inhibition: 17.3±5.72%
[1]; 20 μM
  percentage APN inhibition: 36.11±0.9%
[2]; 1 μM
  percentage APN inhibition: 11.88±3.27%
[2]; 5 μM
  percentage APN inhibition: 17.86±0.75%
